Columns and labels:
[1] = tested on: Human primary osteoblast cells; settings: osteoblasts, lovastatin 1, 10 and 100 μM, 24 and 96 hours
Description: (§1) In vitro cytotoxicity & proliferation assay (basal) are being performed on human osteoblasts and stem cells monolayers.
Human primary osteoblast cells are maintained in a 37° C. humidified incubator with 5% CO2 atmosphere. Cells are cultured in Primary Osteoblast Media containing Primary Osteoblast Culture Supplement and 1% of the penicillin/streptomycin stock solution.

[2] = tested on: MUTZ-3 cells; settings: MUTZ-3, lovastatin 1, 10 and 100 μM, 24 and 96 hours
Description: as §1
As a human primary osteoclast cell is unable to proliferate, MUTZ-3, a human cell line model for osteoclast differentiation is also being used. MUTZ-3 cells are maintained in a 37° C. humidified incubator with 5% CO2 atmosphere. Cells are cultured in Dulbecco's modified Eagle's Medium (DMEM) supplemented with 10% foetal calf serum and 1% of the penicillin streptomycin stock solution.

## CC[C@H](C)C(=O)O[C@H]1C[C@@H](C)C=C2C=C[C@H](C)[C@H](CC[C@@H]3C[C@@H](O)CC(=O)O3)[C@H]21 [lovastatin, reference compound]
[1]
  effect of addition of lovastatin on β-caryophyllene's cytotoxicity: did not affect
[2]
  effect of addition of lovastatin on β-caryophyllene's cytotoxicity: did not affect
